MIC data for 1 compound are collected here from patent publication US9426996B2, “Use of benzoxaboroles as volatile antimicrobial agents on meats, plants, or plant parts” (AgroFresh Inc., priority 2013, dated 2016).

For this assay, the system named is M. piriformis. The assay is described as follows: in vitro volatile MIC assay (Example 10). In kind it is cell-based. The following applies: 72 h, read-out: MIC M. piriformis.

The structures appear in SMILES notation. In brackets after ≈: the same amount, converted by molar mass.

As for `OB1OCc2ccccc21` [Compound B, 2-(hydroxymethyl)phenylboronic acid cyclic monoester], the MIC (as a rule, the lowest concentration found to suppress growth) was 2.2 µg/mL (≈ 16.4 µM).
